Earlier results in patent publication US20120128665A1, “PRESELECTION OF SUBJECTS FOR THERAPEUTIC TREATMENT BASED ON HYPOXIC STATUS” (SYNTA PHARMACEUTICALS CORP., priority 2010, published 2012).

By UniProt entry, the sequences of proteins in these tests, tags left out. Residues count along the entry.
UniProt P10721, 26-976, species assumed: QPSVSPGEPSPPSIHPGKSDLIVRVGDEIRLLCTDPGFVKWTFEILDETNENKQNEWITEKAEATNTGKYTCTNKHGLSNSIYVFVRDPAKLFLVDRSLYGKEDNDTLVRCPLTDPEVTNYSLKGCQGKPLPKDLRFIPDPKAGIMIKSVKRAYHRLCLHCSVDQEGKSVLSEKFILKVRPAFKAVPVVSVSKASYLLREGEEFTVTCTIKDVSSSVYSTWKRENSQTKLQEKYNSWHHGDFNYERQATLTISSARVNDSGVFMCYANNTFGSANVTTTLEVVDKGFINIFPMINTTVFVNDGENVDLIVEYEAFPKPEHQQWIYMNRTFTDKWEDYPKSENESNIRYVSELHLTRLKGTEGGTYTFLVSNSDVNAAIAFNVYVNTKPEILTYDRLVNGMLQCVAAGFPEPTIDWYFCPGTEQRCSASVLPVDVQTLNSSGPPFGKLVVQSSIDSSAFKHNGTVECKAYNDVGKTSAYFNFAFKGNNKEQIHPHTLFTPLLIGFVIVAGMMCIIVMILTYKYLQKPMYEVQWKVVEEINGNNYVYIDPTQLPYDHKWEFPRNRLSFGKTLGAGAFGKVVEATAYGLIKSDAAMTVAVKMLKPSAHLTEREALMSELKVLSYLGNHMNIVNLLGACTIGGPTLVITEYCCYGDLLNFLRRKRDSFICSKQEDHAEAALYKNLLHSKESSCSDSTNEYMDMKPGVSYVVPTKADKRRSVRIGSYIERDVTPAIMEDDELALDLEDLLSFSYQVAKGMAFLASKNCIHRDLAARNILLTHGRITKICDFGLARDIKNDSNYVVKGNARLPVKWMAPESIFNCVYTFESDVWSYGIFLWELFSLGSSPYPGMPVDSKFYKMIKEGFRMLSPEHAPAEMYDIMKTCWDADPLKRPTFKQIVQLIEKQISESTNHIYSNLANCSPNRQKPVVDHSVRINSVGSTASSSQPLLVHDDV
UniProt P35968, 20-1356, species assumed: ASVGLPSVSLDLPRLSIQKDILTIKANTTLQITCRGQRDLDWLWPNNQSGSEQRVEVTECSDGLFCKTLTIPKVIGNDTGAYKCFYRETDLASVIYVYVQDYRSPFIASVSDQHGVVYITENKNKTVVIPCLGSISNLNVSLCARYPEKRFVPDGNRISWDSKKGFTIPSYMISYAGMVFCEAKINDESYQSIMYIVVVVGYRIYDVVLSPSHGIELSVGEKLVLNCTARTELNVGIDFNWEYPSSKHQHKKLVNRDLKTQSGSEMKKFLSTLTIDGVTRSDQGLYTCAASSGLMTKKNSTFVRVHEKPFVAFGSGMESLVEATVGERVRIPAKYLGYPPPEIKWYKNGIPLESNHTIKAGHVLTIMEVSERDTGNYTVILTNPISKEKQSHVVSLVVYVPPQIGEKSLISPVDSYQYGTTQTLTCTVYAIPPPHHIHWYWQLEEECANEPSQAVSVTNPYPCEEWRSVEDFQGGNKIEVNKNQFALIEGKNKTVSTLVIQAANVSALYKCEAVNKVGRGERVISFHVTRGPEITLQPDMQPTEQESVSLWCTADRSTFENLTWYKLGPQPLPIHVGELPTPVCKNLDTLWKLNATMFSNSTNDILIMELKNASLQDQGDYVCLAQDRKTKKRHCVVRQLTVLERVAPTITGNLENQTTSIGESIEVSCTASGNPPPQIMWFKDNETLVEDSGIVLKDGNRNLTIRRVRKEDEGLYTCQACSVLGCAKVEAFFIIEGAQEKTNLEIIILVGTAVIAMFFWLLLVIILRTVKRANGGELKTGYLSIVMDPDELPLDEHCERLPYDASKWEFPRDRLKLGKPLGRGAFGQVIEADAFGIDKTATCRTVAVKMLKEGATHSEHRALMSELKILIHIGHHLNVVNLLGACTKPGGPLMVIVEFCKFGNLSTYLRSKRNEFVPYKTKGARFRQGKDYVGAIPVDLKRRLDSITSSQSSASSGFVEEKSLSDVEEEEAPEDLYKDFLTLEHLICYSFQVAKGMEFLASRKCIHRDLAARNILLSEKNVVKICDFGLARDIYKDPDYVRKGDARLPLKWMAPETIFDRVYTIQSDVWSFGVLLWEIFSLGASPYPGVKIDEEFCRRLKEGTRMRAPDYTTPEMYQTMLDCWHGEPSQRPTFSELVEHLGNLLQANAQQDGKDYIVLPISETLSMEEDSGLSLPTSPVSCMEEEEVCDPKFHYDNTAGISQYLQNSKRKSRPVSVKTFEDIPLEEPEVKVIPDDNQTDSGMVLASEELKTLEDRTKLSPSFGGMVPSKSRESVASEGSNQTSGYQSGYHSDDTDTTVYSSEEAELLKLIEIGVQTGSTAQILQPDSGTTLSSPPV

Assays:
Kit = Kit (Homo sapiens, UniProt P10721); details: in vitro; cited from earlier work
VEGFR-2 = VEGFR-2 (Homo sapiens, UniProt P35968); details: in vitro; cited from earlier work

Cc1ccc(Nc2nccc(N(C)c3ccc4c(C)n(C)nc4c3)n2)cc1S(N)(=O)=O.Cl [pazopanib]
ligand-induced autophosphorylation of Kit (Kit): inhibited | ligand-induced autophosphorylation of VEGFR-2 (VEGFR-2): inhibited
